AlphaSeq binding of Ab-14 heavy chain variants to a spike HR2 peptide

Values reported by Engelhart et al. 2022, doi:10.1038/s41597-022-01779-4 (FLAb copy).

Target peptide (SARS-CoV-2 spike, HR2 region): PDVDLGDISGINAS

Parent: Ab-14, a human scFv built as VH, a 15-residue (Gly4Ser)3 linker, VL. Only the CDRs of the heavy chain vary.
VH: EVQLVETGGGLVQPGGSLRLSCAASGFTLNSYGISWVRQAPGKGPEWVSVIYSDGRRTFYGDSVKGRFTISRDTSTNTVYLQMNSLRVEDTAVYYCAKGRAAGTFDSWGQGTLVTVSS
VL: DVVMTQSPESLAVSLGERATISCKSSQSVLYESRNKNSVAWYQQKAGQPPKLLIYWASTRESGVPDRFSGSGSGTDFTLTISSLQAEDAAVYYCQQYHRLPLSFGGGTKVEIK

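The parent was found by panning a naive human phage display library on the peptide. AAYL49 was designed without a model: most single CDR substitutions and a random sample of double and triple ones. In AlphaSeq, yeast of one mating type display the scFv and yeast of the other type display the target. Pairs that bind mate more often; barcode pairs of the diploids are counted by sequencing. Scores were corrected for input abundance and mapped to Kd with protein pairs of known affinity run in the same pool. Mating was done three times.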

The parent's heavy chain CDRs are GFTLNSYGIS, VIYSDGRRTFYGDSVK, GRAAGTFDS; each variant's own CDRs replace them letter for letter. Scale: log10 of Kd in nM, estimated from mating counts; low values are strong binders. "n.d." means that the variant was in the library but no mating with the target was seen in that replicate; the authors take this as a sign of poor binding, and no number exists. Nonspecific signal, from three strains lacking the peptide, appeared in 15% of pairings of library AAYL49, centred on 4.06 (5% of these signals below 2.83); values are not corrected for it. The control count says in how many pairings with the empty strains this scFv gave a signal, with their mean in brackets.

| CDR-H1 | CDR-H2 | CDR-H3 | log10 Kd, replicates | signal with controls |
|---|---|---|---|---|
| GFTLNLYGID | VIYSDGRRTFYGDSVK | GSAAGTFDS | n.d. / n.d. / n.d. | 0 of 9 |
| HFMLNSYGIS | VIWSDGRRTFYGDSVK | GRAAGTFDS | n.d. / n.d. / n.d. | 0 of 9 |
| GFTLNSYGIS | VIYSDGAPTFYGDSVK | GRAAYTFDS | 3.38 / 3.24 / n.d. | 2 of 9 (3.85) |
| RFTLNSYGIS | VIYSDGRRTFVGDSVK | YRAAGTFDS | n.d. / n.d. / n.d. | 0 of 9 |
| GFTLNSYGIS | VIYSQGRRTFYGDSVM | GRFAGTFDS | n.d. / n.d. / n.d. | 0 of 9 |
| GFTLNSYGIL | SIYSDGRRTFYGDSVK | GRAAGTFDN | n.d. / n.d. / n.d. | 2 of 9 (2.60) |
| GFTLASHGIS | VIESDGRRTFYGDSVK | GRAAGTFDS | 4.03 / 4.56 / 4.32 | 5 of 9 (4.54) |
| GFTLNSYGIS | VIYSDGRRTFYMDKVK | PRAAGTFDS | 2.20 / 1.78 / 1.28 | 0 of 9 |
| GFTLNSYGIS | VHYSDGRRLFYGHSVK | GRAAGTFDS | 4.21 / 4.01 / 5.76 | 6 of 9 (4.76) |
| GFTLNSYHIS | VIYGDGRRTFYGDSVK | RRAAGTFDS | n.d. / n.d. / n.d. | 0 of 9 |
| GFTLNSYGIS | VIYSDGRRTFYGDSNK | GRAAGRFTS | n.d. / n.d. / 5.43 | 1 of 9 (3.80) |
| GFTLNSYGKS | VIHSDGRSTFYGDSVK | GRAAGTFDS | n.d. / n.d. / 4.19 | 1 of 9 (3.29) |
| GFTLNSYMIS | VIYSDGRRTFYGDSVK | FLAAGTFDS | n.d. / n.d. / n.d. | 2 of 9 (4.51) |
| GFTLNSYGIS | VIYSDYRRGFYGDSVK | GRAAGTPDS | n.d. / 4.31 / n.d. | 2 of 9 (3.55) |
| GFALNSYGIS | VIYSDGRRTFMGDSVK | GRIAGTFDS | 0.93 / 1.02 / 1.19 | 0 of 9 |
| GFTLNSYGIS | VGYLDGRRTFYIDSVK | GRAAGTFDS | n.d. / n.d. / 3.36 | 1 of 9 (4.27) |
| GFTLMSYGIS | VDYSDGRRTFYGDSVK | VRAAGTFDS | 5.46 / 4.41 / n.d. | 2 of 9 (4.68) |
| SFTLNSPGIS | VIYSDGRRTFYGDSVK | GRAAYTFDS | n.d. / 4.05 / n.d. | 4 of 9 (3.70) |
| GFWLNSYGIS | VIYSDGRRTFYGDSVK | GVAAGYFDS | 2.95 / 3.45 / 2.62 | 0 of 9 |
| GFTLNSYGIS | VIYSDGRRTFYGDSVK | GLAAWTADS | 2.93 / 2.52 / 2.87 | 6 of 9 (4.41) |
| GFTLNSYGIS | VIQHDGRRTFIGDSVK | GRAAGTFDS | n.d. / n.d. / n.d. | 1 of 9 (3.08) |
| GFFLNSYGIS | VIYSDGRRTFYGDSVK | GRAAGTVDS | 3.03 / 2.25 / n.d. | 0 of 9 |
| GFTLNSYGIS | GTYSDGRRTFYGDEVK | GRAAGTFDS | n.d. / n.d. / n.d. | 0 of 9 |
| GFTYNSYGIS | VIYSDGRQTFYGRSVK | GRAAGTFDS | n.d. / n.d. / n.d. | 0 of 9 |
| GITEDSYGIS | VIYSDGRRTFYGDSVK | GRAAGTFDS | n.d. / n.d. / n.d. | 4 of 9 (3.97) |
| GFTLNQYGIS | VIRSDGRRTFGGDSVK | GRAAGTFDS | n.d. / n.d. / n.d. | 2 of 9 (4.35) |
| GFTLNSYGIS | ASYSDGRRTFYGDSVK | GRWAGTFDS | n.d. / n.d. / n.d. | 2 of 9 (4.10) |
| GFTLNSYGIS | VIYCDGRQTFYGDSVK | GRAAGTIDS | n.d. / n.d. / 4.17 | 2 of 9 (4.36) |
| GFTYNSYGIS | VWYSDGRRTFYGDSVK | GRAAGTFDS | n.d. / n.d. / 3.69 | 3 of 9 (4.01) |
| IFTLNSYGIS | VSYSDGRRTFYGDSVK | GRAAGTFDS | n.d. / n.d. / n.d. | 0 of 9 |
| GYTLNSYGIS | VIHSQGRRTFYGDSVK | GRAAGTFDS | 5.40 / n.d. / n.d. | 3 of 9 (4.62) |
| GFTLNSYIIA | VIYSDGRRAFYGDSVK | GRAAGTFDS | n.d. / n.d. / 3.20 | 1 of 9 (4.30) |
| GTTLNSYGIS | VIYSDGRRTFYGDSVK | GEAAGTFTS | 4.80 / n.d. / 4.09 | 2 of 9 (3.91) |
| GFTLNSYTIL | VIYSDGRRTFYGDSVK | GRAASTFDS | n.d. / n.d. / 2.41 | 0 of 9 |
| GFTLNSYGIS | VIYSDGGRTFFGDSVK | GRAIGTFDS | 3.85 / 5.10 / 3.60 | 5 of 9 (4.58) |
| GFTLNSYGIS | VIHSDGRRTFTRDSVK | GRAAGTFDS | 5.40 / n.d. / 4.31 | 6 of 9 (4.92) |
| GFTLNSYGIS | KIYSDGRPTFYGDSVK | GRAAGTMDS | n.d. / 2.64 / n.d. | 1 of 9 (4.01) |
| GFTLNSYGRS | FIYSDGRRTFYGDSVQ | GRAAGTFDS | n.d. / n.d. / n.d. | 3 of 9 (4.25) |
| GFTLNSYGIS | VIYSMDRRTFYGDSVK | GRAAGTTDS | n.d. / n.d. / n.d. | 3 of 9 (4.37) |
| GFTLNSWGIS | VIYSDGRRTFYGFSVK | GRAAGTFDS | n.d. / n.d. / n.d. | 0 of 9 |
| GFTLWSYGIS | VIYSDGRRTFYGDSVK | GRAAGTIDS | n.d. / 4.52 / 5.20 | 3 of 9 (4.51) |
| GFTLNWYGIS | VIYSDGRSTFRGDSVK | GRAAGTFDS | n.d. / n.d. / n.d. | 1 of 9 (3.21) |
| GFTLNSYGIS | VIYSDGRRTFNGDSVK | TRAARTFDS | 5.81 / n.d. / 3.51 | 3 of 9 (4.67) |
| GFTLNSIGFS | VIYSDPRRTFYGDSVK | GRAAGTFDS | n.d. / n.d. / n.d. | 1 of 9 (3.84) |

The first 3 variants above that were never detected:

| CDR-H1 | CDR-H2 | CDR-H3 | log10 Kd, replicates | signal with controls |
|---|---|---|---|---|
| GFTLNLYGID | VIYSDGRRTFYGDSVK | GSAAGTFDS | n.d. / n.d. / n.d. | 0 of 9 |
| HFMLNSYGIS | VIWSDGRRTFYGDSVK | GRAAGTFDS | n.d. / n.d. / n.d. | 0 of 9 |
| RFTLNSYGIS | VIYSDGRRTFVGDSVK | YRAAGTFDS | n.d. / n.d. / n.d. | 0 of 9 |

In this assay the parent's reference entry averaged 0.65; its copy inside this library read 4.11 (one replicate of three).